# CycPeptMPDB entries from one study

Data: CycPeptMPDB; original report Townsend et al. 2020, doi:10.26434/chemrxiv.13335941.v1.

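Lipid, pH, incubation time, direction and concentration are not recorded in the data file. Other peptides of the study may be missing here. Entries at the database's floor value (log10 P of -10) are not listed.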

PAMPA measures passive passage through an artificial lipid membrane.
Permeability is in 10^-6 cm/s, converted from the database's log10 values; higher is more permeable.

| PAMPA (10^-6 cm/s) | structure (SMILES) |
|---|---|
| 7.4 | CC(C)C[C@@H]1C(=O)N2CCC[C@H]2C(=O)N(C)[C@H](CC(C)C)C(=O)N[C@@H](Cc2ccccc2)C(=O)N[C@@H](Cc2ccccc2)CC(=O)N[C@H](CC(C)C)C(=O)N1C |
| 2.8 | CC(C)C[C@@H]1C(=O)N[C@@H](Cc2ccccc2)C(=O)N2CCC[C@@H]2C(=O)N(C)[C@@H](C)C(=O)N(C)[C@H](CC(C)C)C(=O)N[C@H](CC(C)C)C(=O)N2CCC[C@@H]2C(=O)N1C |
| 3.1 | CC(C)C[C@@H]1C(=O)N(C)[C@@H](CC(C)C)C(=O)N2CCC[C@H]2C(=O)N(C)[C@@H](CC(C)C)C(=O)N[C@@H](Cc2ccccc2)C(=O)N2CCC[C@H]2C(=O)N[C@@H](C)C(=O)N1C |
| 6.5 | CC(C)C[C@H]1C(=O)N[C@@H](Cc2ccccc2)CC(=O)N2CCC[C@@H]2C(=O)N(C)[C@@H](CC(C)C)C(=O)N[C@@H](Cc2ccccc2)C(=O)N(C)[C@H](C)C(=O)N1C |
| 3 | CC(C)C[C@@H]1NC(=O)[C@@H](CC(C)C)N(C)C(=O)C[C@H](Cc2ccccc2)NC(=O)[C@H]2CCCN2C(=O)[C@H](Cc2ccccc2)NC(=O)[C@H](CC(C)C)N(C)C(=O)[C@@H]2CCCN2C1=O |
| 3.9 | CC(C)C[C@@H]1C(=O)N2CCC[C@H]2C(=O)N(C)[C@H](CC(C)C)C(=O)N[C@@H](Cc2ccccc2)C(=O)N[C@@H](C)C(=O)N[C@H](CC(C)C)C(=O)N1C |
| 1.1 | CCCN1CC(=O)N[C@H](CC(C)C)C(=O)N[C@H](CC(C)C)C(=O)N2CCC[C@H]2C(=O)N(C)[C@H](CC(C)C)C(=O)N[C@@H](Cc2ccccc2)C1=O |
| 1.4 | CC(C)C[C@H]1NC(=O)[C@H]2CCCN2C(=O)CN(Cc2ccccc2)C(=O)[C@H](CC(C)C)N(C)C(=O)C[C@H](Cc2ccccc2)NC(=O)[C@@H]2CCCN2C(=O)[C@H](Cc2ccccc2)NC1=O |
| 5.6 | CC(C)C[C@@H]1C(=O)N2CCC[C@H]2C(=O)N(C)[C@H](CC(C)C)C(=O)N[C@@H](Cc2ccccc2)C(=O)N2CCC[C@H]2C(=O)N[C@@H](Cc2ccccc2)CC(=O)N(C)[C@@H](CC(C)C)C(=O)N1C |
| 5.6 | CC(C)C[C@@H]1NC(=O)[C@@H]2CCCN2C(=O)CN(Cc2ccccc2)C(=O)[C@@H](CC(C)C)N(C)C(=O)C[C@H](Cc2ccccc2)NC(=O)[C@@H]2CCCN2C(=O)[C@H](Cc2ccccc2)NC1=O |
| 4.1 | CC(C)C[C@@H]1NC(=O)C[C@H](Cc2ccccc2)NC(=O)[C@@H]2CCCN2C(=O)[C@H](Cc2ccccc2)NC(=O)[C@H](CC(C)C)N(C)C(=O)[C@H]2CCCN2C(=O)[C@@H](CC(C)C)NC1=O |
| 1.4 | CC(C)C[C@H]1NC(=O)[C@@H](C)NC(=O)[C@H]2CCCN2C(=O)[C@H](Cc2ccccc2)NC(=O)[C@H](CC(C)C)N(C)C(=O)[C@H]2CCCN2C(=O)[C@H](CC(C)C)N(C)C1=O |
| 2.2 | CC(C)C[C@@H]1NC(=O)C[C@H](Cc2ccccc2)NC(=O)[C@H]2CCCN2C(=O)[C@H](Cc2ccccc2)NC(=O)[C@@H](CC(C)C)NC(=O)[C@@H]2CCCN2C(=O)[C@H](CC(C)C)N(C)C1=O |

Extract of 2 entries:

| structure (SMILES) | PAMPA (10^-6 cm/s) |
|---|---|
| CC(C)C[C@@H]1NC(=O)C[C@H](Cc2ccccc2)NC(=O)[C@H]2CCCN2C(=O)[C@H](Cc2ccccc2)NC(=O)[C@@H](CC(C)C)NC(=O)[C@@H]2CCCN2C(=O)[C@H](CC(C)C)N(C)C1=O | 2.2 |
| CC(C)C[C@H]1C(=O)N[C@@H](Cc2ccccc2)CC(=O)N2CCC[C@@H]2C(=O)N(C)[C@@H](CC(C)C)C(=O)N[C@@H](Cc2ccccc2)C(=O)N(C)[C@H](C)C(=O)N1C | 6.5 |